Results from US7084169B2, “Aminoalkoxyindoles and methods of use” (Roche Palo Alto LLC, priority 2002, dated 2006).

Sequences of proteins named here, by UniProt entry; tags and fusion partners are left off.
UniProt P50406, whole entry: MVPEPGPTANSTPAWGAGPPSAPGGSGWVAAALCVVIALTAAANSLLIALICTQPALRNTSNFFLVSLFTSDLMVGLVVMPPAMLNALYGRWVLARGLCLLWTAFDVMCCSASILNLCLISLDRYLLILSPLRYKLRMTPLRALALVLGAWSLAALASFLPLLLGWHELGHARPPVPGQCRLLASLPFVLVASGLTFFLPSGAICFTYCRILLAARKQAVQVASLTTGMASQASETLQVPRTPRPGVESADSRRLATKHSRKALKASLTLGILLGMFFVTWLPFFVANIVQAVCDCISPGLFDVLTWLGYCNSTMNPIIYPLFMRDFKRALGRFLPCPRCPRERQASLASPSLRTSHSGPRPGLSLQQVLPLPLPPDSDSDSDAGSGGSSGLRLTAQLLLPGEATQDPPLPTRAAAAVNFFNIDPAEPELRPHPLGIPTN

Biological target: recombinant human 5-HT6 receptor (Homo sapiens, UniProt P50406)
Assay: Radioligand binding studies, competition for [3H]LSD binding in HEK293 cell membranes
Settings: [3H]LSD (5 nM), membranes of HEK293 cells stably expressing recombinant human 5-HT6 receptor, pH 7.4, 37° C., 60 min; tested form: HCl
Description: The binding activity of compounds of this invention in vitro was determined as follows. Duplicate determinations of ligand affinity are made by competing for binding of [^3H]LSD in cell membranes derived from HEK293 cells stably expressing recombinant human 5-HT6 receptor.
All determinations were made in assay buffer containing 50 mM Tris-HCl, 10 mM MgSO4, 0.5 mM EDTA, 1 mM ascorbic acid, pH 7.4 at 37° C., in a 250 microliter reaction volume. Assay tubes containing [^3H] LSD (5 nM), competing ligand, and membrane were incubated in a shaking water bath for 60 min. at 37° C., filtered onto Packard GF-B plates (pre-soaked with 0.3% PEI) using a Packard 96 well cell harvester and washed 3 times in ice cold 50 mM Tris-HCl. Bound [^3H] LSD was determined as radioactive counts per minute using Packard TopCount.
Displacement of [3H]LSD from the binding sites was quantified by fitting concentration-binding data to a 4-parameter logistic equation:
[formula] where Hill is the Hill slope, [ligand] is the concentration of competing radioligand and IC50 is the concentration of radioligand producing half-maximal specific binding of radioligand. The specific binding window is the difference between the Bmax and the basal parameters.

## O=S(=O)(c1cc(Cl)ccc1Cl)c1c[nH]c2c(OCCN3CCCC3)cccc12
  5-HT6 affinity values (pKi): 8.2
